{"source": "paper PMC10361461", "about": "“Evaluating the solubility of compounds intended for intramammary infusion based upon tests conducted across a range of milk matrices” (PLOS ONE, 2023)", "origin": "cited, not measured here", "settings": "cited from earlier work", "data": [{"smiles": "CN1C(C(=O)Nc2ccccn2)=C(O)c2ccccc2S1(=O)=O", "note": "[Piroxicam]", "values": [{"measurement": "Ionization state at pH 7", "result": "Negatively charged"}]}]}
